The structures appear in SMILES notation. The entries are a selection whose mix differs from that of the whole data set. Measured potencies and affinities stand elsewhere. Results filed as inconclusive are left out. Active and inactive are the calls of the source.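 How the source made its calls: active means pathway reporter half-maximal dose under half the control reporter's, or control reporter unaffected while pathway reporter is inhibited; inconclusive means either signal flat at 30 to 70% inhibition or poorly fitted; inactive means the rest.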

This experiment in a line: LMP1 TES1 pathway selectivity over dsRED control – imaging, HEK293T, dual-color eGFP/dsRED, cherry-picks, selectivity assay for LMP1 NF-kB inhibitor project, dose response (AID 588398).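 Further: 0% = median of neutral control wells and -100% = median of MG132 positive control wells.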 Particulars: HEK293T Tet-On dsRED counter-screen channel, 48 h; at 19.5 µM (top of the series). A general note: Counterscreens check selectivity or assay interference.
Take `COc1ccc(/C=C/c2nc3ccccc3n2C)cc1`: the activity change, negative = inhibition was inactive: 3.42%. Consider `C[C@@H](OC(=O)c1[nH]cnc1C(=O)N1CCc2ccccc2C1)c1ccccc1`, for which the activity change, negative = inhibition was inactive: 29.4%. Regarding `COc1ccc(Cn2c(SCc3cc(C)ccc3C)nc3cc(OC)c(OC)cc3c2=N)cc1`, the activity change, negative = inhibition was inactive: -12.6%. As to `COc1cc(Cl)cc(C(c2c(C(=O)O)[nH]c3ccccc23)c2c(C(=O)O)[nH]c3ccccc23)c1O`, the activity change, negative = inhibition is inactive: 14.5%. Regarding `COC(=O)[C@H](C)[C@H]1C[C@]1(C)[C@H](NC(=O)OCc1ccccc1)c1ccccc1`, the activity change, negative = inhibition is inactive: -0.636%.

Regarding `O=C(COc1ccc2ccccc2c1)NCCNC(=O)COc1ccc2ccccc2c1`, the activity change, negative = inhibition is inactive: 11.9%. As for `COc1ccc2oc(C(=O)NCCc3ccccc3)c(C)c2c1`, the activity change, negative = inhibition is inactive: 6.72%.

For the compound `CCN1CCN(Cc2ccc(NC(=O)c3ccc(C)c(NC(=O)c4c[nH]c5cc(C(F)(F)F)ccc5c4=O)c3)cc2C(F)(F)F)CC1`, the activity change, negative = inhibition is inactive: 11.4%. For the compound `Cc1nc(N)nc(N)c1/C=C/C(C)(C)c1ccc(Cl)cc1`, the activity change, negative = inhibition is inactive: 69.2%. For the compound `O=C(O)c1ccccc1Nc1cccc(OCc2ccc3ccccc3n2)c1`, the activity change, negative = inhibition is inactive: 21.5%.

Values taken from PubChem BioAssay AID588398 (Broad Institute, 2011).
